According to ChEMBL document CHEMBL3244335 (J Med Chem, 1977):

Assay: Ionization constant, pKa of the compound
Format: physicochemical

With `N=C(N)N[N+](=O)[O-]` as the compound, how does the pKa read?
Its pKa is -0.9.
